Source: patent US6342508B1, “N-hydroxy-2-(Alkyl,Aryl or Heteroaryl sulfanyl, sulfinyl or sulfonyl) 3-substituted alkyl, aryl or heteroarylamides as matrix metalloproteinase inhibitors” (American Cyanamid Company, priority 1997, dated 2002)

By UniProt entry, the sequences of proteins in these tests, tags left out. Residues count along the entry.
UniProt P14780, 94-707: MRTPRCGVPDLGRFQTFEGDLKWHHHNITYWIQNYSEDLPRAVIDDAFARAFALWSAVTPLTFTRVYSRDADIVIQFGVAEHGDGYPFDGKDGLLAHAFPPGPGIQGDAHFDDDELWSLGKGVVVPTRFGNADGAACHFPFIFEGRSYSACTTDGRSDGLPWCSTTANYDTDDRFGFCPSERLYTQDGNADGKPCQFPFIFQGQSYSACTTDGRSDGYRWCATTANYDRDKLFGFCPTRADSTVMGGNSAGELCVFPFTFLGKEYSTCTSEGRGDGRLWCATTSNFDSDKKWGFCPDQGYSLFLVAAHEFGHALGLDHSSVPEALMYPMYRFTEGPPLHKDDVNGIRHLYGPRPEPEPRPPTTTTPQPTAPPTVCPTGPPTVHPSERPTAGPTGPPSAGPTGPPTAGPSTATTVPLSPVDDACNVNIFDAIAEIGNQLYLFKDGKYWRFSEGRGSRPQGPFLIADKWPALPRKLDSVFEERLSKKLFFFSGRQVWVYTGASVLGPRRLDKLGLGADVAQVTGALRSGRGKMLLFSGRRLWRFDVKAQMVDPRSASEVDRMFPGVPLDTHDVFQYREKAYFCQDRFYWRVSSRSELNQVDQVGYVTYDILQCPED

Target: T1, MMP 9 (Homo sapiens, UniProt P14780)
T1 construct: The stock of human neutrophil gelatinase B is diluted with assay buffer; from tissue; host or cells: human neutrophils
Assay: In Vitro Gelatinase Assay (human neutrophil gelatinase B, thiopeptide substrate/DTNB)
Type: biochemical

## COc1ccc(CS(=O)(=O)C(C)(Cc2ccccc2)C(=O)NO)cc1 (stereo not shown) [Example 41, N-Hydroxy-2-(4-methoxy-phenylmethanesulfonyl)-2-methyl-3-phenyl propionic acid hydroxamide]
  IC50: 10.8 nM
